# Laboratory results from patent US20140171466A1, “PAIN MANAGEMENT IN SICKLE CELL ANEMIA” (priority 2012, published 2014).
# Columns and labels:
# mu opioid receptor = mu opioid receptor (Homo sapiens, UniProt P35372); test: [35S]GTPγS binding assay μ; conditions: for EC50: read-out: [35S]GTPγS μ EC50
# human μ opioid receptor = human μ opioid receptor (Homo sapiens, UniProt P35372); test: Receptor binding, [3H]DAMGO displacement; conditions: read-out: Receptor Binding Ki (nM) μ
# human NOP receptor = human NOP receptor (Homo sapiens, UniProt P41146); test: Receptor binding, [3H]nociceptin displacement, CHO cell membranes; conditions: read-out: Receptor Binding Ki (nM) NOP
Compound,EC50 (mu opioid receptor) [nM],Ki (human μ opioid receptor) [nM],[35S]GTPγS μ % Stim (mu opioid receptor; full agonist DAMGO as standard) [%],Ki (human NOP receptor) [nM]
O=C1Cc2ccccc2N1C1CCN(C2CCC3CCCc4cccc2c43)CC1 (stereo not drawn),129,79.8,,
CC(C)[C@H]1CC[C@@H](N2CCC3(CC2)C(=O)N(CC(=O)OC(C)(C)C)CN3c2ccccc2)CC1,64,32.7,29 ± 6,0.97
